The values that follow come from ChEMBL document CHEMBL1268855 (J Nat Prod, 2010).

Molecules are shown by their SMILES.

Test [1] deals with T1, Neuraminidase (Influenza A virus, UniProt B4URF0).
In test [2] the target is T1, Neuraminidase. The source holds these as a separate data set.

Regarding `COc1c(C)c(O)c(C)c(O)c1C(=O)/C=C/c1ccc(O)cc1`, the Ki on Neuraminidase [1] was found to be 24.9 µM. This molecule came in with an IC50 against Neuraminidase [2] of 8.15 µM.

`COc1cc(O)c(C)c(O)c1C(=O)/C=C/c1ccccc1` had a Ki at Neuraminidase [1] of 12 µM. At Neuraminidase [2], this molecule displayed an IC50 of 93.8 µM.

With `COc1c(C)c(O)c(C)c(O)c1C(=O)/C=C/c1ccccc1`, the Ki at Neuraminidase [1] came out at 41.4 µM. Besides, the IC50 at Neuraminidase [2] came to 35.2 µM.

At Neuraminidase [1], `COc1c(C)c(O)c(C)c(O)c1C(=O)/C=C/c1ccccc1O` gave a Ki of 34.1 µM. Besides, 10 µM corresponded to half-maximal inhibition against Neuraminidase [2] (IC50).
